# Assay results: US20110319398A1 (priority 2010, published 2011)
# Test system: E. coli expressing YadA
# Assay: Adherence of E. coli expressing YadA to HEp-2 cells (ELISA)
# Conditions: 60 μM C20, pDS132-yadA
smiles,measurement,value
"Cc1nn(-c2ccccc2)c(C)c1/N=C/c1c(O)ccc2ccccc12 [Compound C20, 1-[(E)-(3,5-dimethyl-1-phenyl-pyrazol-4-yl)iminomethyl]naphthalen-2-ol]",Adherence of E. coli expressing YadA to HEp-2 cells,did not block the ability of E. coli expressing YadA to adhere
